Assay results taken from US20150320795A1, “COMPOSITIONS AND METHODS COMPRISING POLYETHYLENE GLYCOL AND MAGNESIUM FOR TREATMENT OF NEURONAL INJURY” (priority 2012, published 2015).

Settings: healthy subjects

Question: Which “systemic exposure relative to total dose” value does the source give for `O=S(=O)([O-])[O-].[Mg+2]` [MgSO4, magnesium sulfate] here?
Answer: proportionate to total dose
